## Yeast mating assay B: variants of the scFv Ab-14

Reference: Li et al. 2023, doi:10.1038/s41467-023-39022-2. File: FLAb, binding data.

Antigen: PDVDLGDISGINAS, a 14-residue peptide of the SARS-CoV-2 spike HR2 region.

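The variants were designed computationally from a first round of random CDR variants and then made and measured. Several design methods are mixed in this list. The scFvs were displayed on barcoded MATa yeast, the peptide on MATalpha yeast. Pairs that bind mate more often; barcode pairs of the diploids are counted by sequencing. A regression on co-assayed BCL2-family reference pairs converts the normalised counts of each replicate to an apparent Kd. There are six technical replicates.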

Parent scFv Ab-14: VH joined to VL by a (GGGGS)3 linker. Changes lie in the light chain CDRs alone.
VH: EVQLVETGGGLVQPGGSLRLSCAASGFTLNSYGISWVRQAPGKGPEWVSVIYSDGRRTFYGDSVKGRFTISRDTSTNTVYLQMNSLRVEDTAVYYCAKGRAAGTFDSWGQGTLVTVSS
VL: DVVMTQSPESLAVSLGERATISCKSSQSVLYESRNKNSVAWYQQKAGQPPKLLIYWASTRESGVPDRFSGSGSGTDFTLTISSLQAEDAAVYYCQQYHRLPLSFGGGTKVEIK

The parent's light chain CDRs are KSSQSVLYESRNKNSVA, WASTRES, QQYHRLPLS; each variant's own CDRs replace them letter for letter. Variants here have more than six changes. Numbers give log10(Kd / nM), so 0 is 1 nM and 3 is 1 µM. Smaller is tighter. Averages over replicates are reported, and they cover detected replicates only. Where no diploid with the target was found in any replicate, the entry reads "no signal": below detection, most likely a poor binder, though not proof of it. The range of this assay differs from that of the first round, and the authors advise against merging the two. The authors' rule: three or more of the six replicates give a measured affinity, fewer mean a poor binder. Three control strains display no target. For all light chain designs, 4% of the pairings with them gave a signal, with a median of 2.64 and one signal in twenty below 1.59, so weak values seen in few replicates may be background.

The variant MISNVMNTLTHVGNNVA | DLSEREN | QQYFRLPLS showed 0.46 (6 of 6 replicates). The variant KLMQSPEYESRNANSVA | NASQREE | QQYHRLPLS showed 0.18 (6 of 6 replicates). The variant MISQLFEGLSTSKNPVA | QVSTREE | QQYHRLPLS showed 1.59 (6 of 6 replicates). The variant MMSYGWLYGSRNKRNVA | DRETREH | QQYDRLPLS showed 0.31 (6 of 6 replicates). With NMKVGLNFEDIQHQAIA | SVDERES | QQYMRLPLT the result was 0.64 (6 of 6 replicates). For KLYQSMGYLSHNKNSIA | DMQRREN | QQYHRLPLS, the assay gave 1.13 (6 of 6 replicates). The variant KLYMSTGYESRNMDSIA | DNSTRGR | QQYHRLPLS gave 1.20 (6 of 6 replicates).

With HMQNEWQGNSRAENNVA | ETTVVCD | QQYATLPLQ the result was 0.93 (6 of 6 replicates). The variant KLGQSVAMTSRNKNNVA | DLNMRER | QQYHRLPLS showed -0.30 (6 of 6 replicates). The variant KMSQSELYEERNSNAVA | QASQRMS | QQYHRLPLS gave 1.42 (6 of 6 replicates). For KFFQSVLYEQRNQNNVA | SASTRED | QQYHRLPLS, the assay gave -0.32 (6 of 6 replicates). The variant RIRESMFYSHEGRRNIA | QAQIREI | QQYSQLPLF showed 0.64 (6 of 6 replicates). The variant KITATMRFEQKNSNNIA | EVSTRSK | QQYVRLPLA gave 0.20 (6 of 6 replicates). For QFDMHIPYQGEQNASIA | GTTNRLT | QQYFKLPLS, the assay gave 1.04 (6 of 6 replicates).

For KLRTVTGTEKVIGNNVA | EMETREK | QQYNRLPLS, the assay gave 1.66 (6 of 6 replicates). With KLYVSTMLESHNKNSIA | DLSTRGN | QQYHRLPLS the result was 0.07 (6 of 6 replicates). With KIGGVTNGISRAKNSVA | EQSTRED | QQYNRLPLS the result was 0.71 (6 of 6 replicates). The variant MVSQIMLWGLHAKNSIA | EAQMRLN | QQYDRLPLF gave no signal (0 of 6 replicates). With MMQQVWGMGQRHRNNVA | QTSTREE | QQYDRLPLI the result was 0.43 (6 of 6 replicates). The variant KSSPSQLYEDREFNSVA | NASQRES | QQYHRLPLS showed 0.28 (6 of 6 replicates). For HMKDEPGLGPQTYSSVA | HASIREP | QQYYRLPLM, the assay gave 0.10 (6 of 6 replicates).

The variant NFGQKMALYTGDRYSIA | DHTVRAD | QQYSRLPLT showed 0.50 (6 of 6 replicates). The variant KFFGGIPEQERDDYSIA | KGTLRET | QQYQRLPLS showed 0.18 (6 of 6 replicates). For KMTEQLLNGEREPSNIA | AQVIGSD | QQYHHLPLI, the assay gave 2.25 (3 of 6 replicates). The variant TLYGLTNSMSKNQNSVA | EMTTREK | QQYDRLPLI gave 1.18 (6 of 6 replicates). With SLAMFEDNYTQLHNSVA | DTANIDI | QQYDRLPLS the result was no signal (0 of 6 replicates). With TIGQMFNGESRIRNSVA | QASTREE | QSYDRLPLA the result was 1.07 (6 of 6 replicates). The variant HLKQVLNGVNKKMNSVA | HMNTREQ | QQYDRLPLV showed 1.45 (6 of 6 replicates).

For KSSPSMLYEERMDNSVA | NASQRES | QQYHRLPLS, the assay gave 0.19 (6 of 6 replicates). The variant KVGAYPQGVEQDMQNVA | EGSYASR | QQYHRLPLS showed 0.89 (6 of 6 replicates). The variant HMKDELGLGPQTYHSVA | HASILEP | QQYYRLPLG showed 1.59 (6 of 6 replicates). With KLSMTTEMEHVNRNSVA | ELVTRMK | QQYNRLPLS the result was 0.31 (6 of 6 replicates). For KWSQSWLMESMNSNSVA | NASQRES | QQYHRLPLS, the assay gave 1.02 (6 of 6 replicates).

Top 5 of the variants detected in all replicates, tightest first:

{"CDR-L1": "KFFQSVLYEQRNQNNVA", "CDR-L2": "SASTRED", "CDR-L3": "QQYHRLPLS", "mean, log10 nM": "-0.32", "detected": "6/6"}
{"CDR-L1": "KLGQSVAMTSRNKNNVA", "CDR-L2": "DLNMRER", "CDR-L3": "QQYHRLPLS", "mean, log10 nM": "-0.30", "detected": "6/6"}
{"CDR-L1": "KLYVSTMLESHNKNSIA", "CDR-L2": "DLSTRGN", "CDR-L3": "QQYHRLPLS", "mean, log10 nM": "0.07", "detected": "6/6"}
{"CDR-L1": "HMKDEPGLGPQTYSSVA", "CDR-L2": "HASIREP", "CDR-L3": "QQYYRLPLM", "mean, log10 nM": "0.10", "detected": "6/6"}
{"CDR-L1": "KFFGGIPEQERDDYSIA", "CDR-L2": "KGTLRET", "CDR-L3": "QQYQRLPLS", "mean, log10 nM": "0.18", "detected": "6/6"}